Test systems include HCT-116; A-375; HeLa.
Holding throughout (experiment): cells
Settings in all cases: Homo sapiens

Take `COCc1cccc2[nH]c(-c3n[nH]c4ncc(-c5cnc6ccccc6c5)cc34)nc12`: the midpoint of inhibition with HCT-116, the IC50, lay at 0.0032 µM.
As for `OCc1cccc2[nH]c(-c3n[nH]c4ncc(-c5cncc6ccccc56)cc34)nc12`, the IC50 (usually the concentration that inhibits the measured activity by half) in the experiment on A-375 is 1.47 µM.
With `CNCc1cncc(-c2cnc3[nH]nc(-c4nc5cc(OC(F)(F)F)ccc5[nH]4)c3c2)c1`, the half-inhibitory concentration (IC50) with HeLa was 0.093 µM.
`COC(=O)c1cccc2[nH]c(-c3n[nH]c4ncc(-c5cncc6ccccc56)cc34)nc12` yielded an IC50 with HCT-116 of 8.01 µM. This lies in the single-digit micromolar range.
